# PubChem BioAssay AID602 (SRMLSC, 2007)
# The list shows a part of the results, in another mix than the full data. Some results for these compounds are left out of this collection, so the calls shown say nothing about other tests. Activity calls are given as the source filed them.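 Rule for the calls: active = viability drop by adding the cancer drug above about 55%, with treated viability meeting a 40% cutoff (limit read from the data); inactive = the rest, inconclusive results apart.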
# Experiment: reversal of MRP1-mediated doxorubicin resistance, primary screen, H69AR cells, doxorubicin co-treatment (AID 602);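 note: viability without doxorubicin minus viability with 2 µM doxorubicin for each compound; larger differential means the compound sensitizes cells more to doxorubicin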
# Conditions: H69AR cells + 2 uM doxorubicin, CellTiter-Glo, 72 h; at 10 µM; active compounds read high
row,Compound,differential viability (reversal)
1,O=C(OC1CN2CCC1CC2)C(CO)(c1ccccc1)c1ccccc1 (configuration not stated),inactive: -0.77%
2,CN(C)c1cccc(C(=O)NCC2(N(C)C)CCCCC2)c1,inactive: -27.2%
